This is an account of results in patent US7741283B2, “Compositions and methods for inhibiting cell proliferation” (St. Louis University, priority 2003, dated 2010).

The experiment concerns the target T1, acidic pH binding sites (Mus musculus, UniProt P14824).
T1 sequence (P14824 2-673): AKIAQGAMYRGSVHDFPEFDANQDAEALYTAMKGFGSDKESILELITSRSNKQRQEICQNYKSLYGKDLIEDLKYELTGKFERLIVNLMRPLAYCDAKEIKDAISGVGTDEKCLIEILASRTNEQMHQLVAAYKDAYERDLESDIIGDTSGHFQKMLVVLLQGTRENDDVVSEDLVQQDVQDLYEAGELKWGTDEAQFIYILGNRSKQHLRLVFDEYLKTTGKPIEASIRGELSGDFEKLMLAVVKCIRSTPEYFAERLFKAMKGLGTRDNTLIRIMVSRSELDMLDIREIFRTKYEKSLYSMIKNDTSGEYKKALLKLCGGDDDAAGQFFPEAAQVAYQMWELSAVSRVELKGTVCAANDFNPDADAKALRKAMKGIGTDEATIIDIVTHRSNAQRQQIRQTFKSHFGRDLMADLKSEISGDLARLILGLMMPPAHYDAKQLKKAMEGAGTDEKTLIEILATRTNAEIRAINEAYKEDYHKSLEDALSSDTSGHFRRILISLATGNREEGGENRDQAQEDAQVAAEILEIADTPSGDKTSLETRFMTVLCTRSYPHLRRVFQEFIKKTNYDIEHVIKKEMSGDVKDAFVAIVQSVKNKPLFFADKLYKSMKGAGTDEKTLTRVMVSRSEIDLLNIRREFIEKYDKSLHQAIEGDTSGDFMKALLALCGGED
Nature of the experiment: Specific binding of 125I-ligands to MEF cells at acidic pH. As to conditions: pH 5.5.

`OCCN1CCN(CCCN2c3ccccc3Sc3ccc(C(F)(F)F)cc32)CC1` [fluphenazine, reference compound]: the “Inhibition of ^125I-α2M* binding to cells” value is given as “most potent inhibitors”.
